Assay [1] addresses Aminopeptidase A (Rattus norvegicus) (UniProt P50123). The conditions noted are these: dose 2.0 mg/kg, route iv, time 30.0 min.
Assay [2] has the same target. The conditions noted are these: dose 2.0 mg/kg, route iv, time 30.0 min. This is another data set of the same source.
The target is the same in assay [3]. To be noted: dose 2.0 mg/kg, route iv, time 30.0 min. The source holds these as a separate data set.
For assay [4] the target is unchanged. To be noted: dose 100.0 mg/kg, route iv, time 30.0 min.
Assay [5] shares this target. To be noted: dose 100.0 mg/kg, route iv, time 30.0 min. The source holds these as a separate data set.
Assay [6] has the same target. The conditions noted are these: dose 100.0 mg/kg, route iv, time 30.0 min. This is another data set of the same source.

Chains of the proteins cited; added tags and fusions are not shown.
UniProt P50123, whole entry: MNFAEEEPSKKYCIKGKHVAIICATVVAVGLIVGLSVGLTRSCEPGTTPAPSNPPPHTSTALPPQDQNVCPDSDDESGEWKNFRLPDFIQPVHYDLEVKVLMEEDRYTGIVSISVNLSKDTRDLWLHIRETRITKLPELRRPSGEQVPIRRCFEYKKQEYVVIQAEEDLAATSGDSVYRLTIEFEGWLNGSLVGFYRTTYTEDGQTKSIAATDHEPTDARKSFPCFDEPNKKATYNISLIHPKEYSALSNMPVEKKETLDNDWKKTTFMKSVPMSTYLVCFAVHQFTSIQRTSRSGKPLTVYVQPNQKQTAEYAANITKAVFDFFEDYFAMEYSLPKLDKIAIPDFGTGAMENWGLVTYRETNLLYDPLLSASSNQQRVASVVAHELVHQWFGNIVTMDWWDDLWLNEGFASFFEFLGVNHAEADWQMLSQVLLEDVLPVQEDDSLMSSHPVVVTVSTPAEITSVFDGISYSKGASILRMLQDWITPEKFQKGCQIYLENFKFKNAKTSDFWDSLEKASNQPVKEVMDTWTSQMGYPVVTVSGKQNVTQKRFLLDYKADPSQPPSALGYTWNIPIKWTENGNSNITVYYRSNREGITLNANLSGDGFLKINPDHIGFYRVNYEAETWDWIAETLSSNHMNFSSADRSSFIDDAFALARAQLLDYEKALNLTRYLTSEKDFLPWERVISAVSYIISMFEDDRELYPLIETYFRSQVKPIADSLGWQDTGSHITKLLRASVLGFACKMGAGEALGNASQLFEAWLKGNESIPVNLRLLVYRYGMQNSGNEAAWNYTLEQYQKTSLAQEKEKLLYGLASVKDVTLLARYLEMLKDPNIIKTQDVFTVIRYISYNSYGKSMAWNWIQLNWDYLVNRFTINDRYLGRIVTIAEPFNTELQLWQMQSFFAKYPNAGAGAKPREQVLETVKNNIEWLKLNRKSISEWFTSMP

This passage reports inhibition results from ChEMBL document CHEMBL6074628, “Rational design, synthesis and pharmacological characterization of novel aminopeptidase A inhibitors” (Bioorg Med Chem Lett, 2024).

Molecules are shown by their SMILES. Activity calls are given as the source filed them. The calls are words filed in the database; no cut-off is given here.

Broadly, the inhibition is the share of the control response that was lost under treatment. For the compound `COc1ccccc1CCP(=O)(O)[C@@H](N)CCC(=O)O`, the inhibition in assay [1] was determined as 71%; in assay [2], 78%; in assay [3], 66%.
For the compound `N[C@@H](CCS(=O)(=O)O)CSSC[C@@H](N)CCS(=O)(=O)O`, the inhibition in assay [4] is 83%. Besides, the inhibition result in assay [5] and in assay [6] was “inactive” throughout.
